Like-named read-outs stand apart in the source and are kept apart here.
Columns and labels:
[1] = tested on: isolated rat liver mitochondria; assay: Accumulation / binding in isolated mitochondria
Protocol: FIG. 16. […] Bar 2 and 4 (+FCCP), ΔΨ was dissipated by addition of FCCP at 1 μM plus antimycin A at 0.5 μg/mg protein from the beginning of the experiment. Results are expressed as mean+SEM of n=3, *p=0.01 versus control.
FIG. 23. […] Trace 3 was corrected for the absorbance of TMRM.
Preparation of mitochondria from rat liver.
Mitochondrial incubation medium.
Analysis of ceramides by mass spectroscopy (MS).

[2] = tested on: MCF7 cells; conditions: 5 μM
[3] = aqueous conditions at pH 4.5, 7.5 and 8.5 over 48 hrs

D-erythro-2-N-[6′-(1″-Pyridinium)-hexanoyl]-sphingosine Bromide [LCL29]
suppression of accumulation by dissipation of ΔΨ (antimycin plus FCCP) ([1]; 10 μM): 66.8%
ΔΨ-dependent uptake ([1]; 10 μM): 6.28 nmol/mg protein
association with mitochondria ([1]; 10 μM, energized mitochondria): 95%
binding to mitochondria ([1]; 30 μM, at 4 min): 5±0.8 nmol/mg protein
concentration in the matrix space ([1]; calculated with matrix volume 1.6 μl/mg protein): 3900 µM
Cellular level, % of concentration applied ([2]; 5 h): ~17%
Cellular level, % of concentration applied ([2]; 24 h): 32%
Stability (decomposition) by MS [3]: no evidence of their decomposition
